The assay has as its system Mus musculus. In words: Antinociceptive activity in male B6-SJL mouse administered subcutaneously daily measured on day 1 by warm water tail-flick assay. The format is functional. As to conditions: sc, 24 h, time 1 day.

Here are results for one molecule from ChEMBL document CHEMBL4715803, “Synthetic Studies of Neoclerodane Diterpenes from Salvia divinorum: Identification of a Potent and Centrally Acting μ Opioid Analgesic with Reduced Abuse Liability” (J Med Chem, 2016).

Usually ED50 stands for the midpoint of the dose-response relation. Read a high ED50 as a need for a large dose.

For `CN1CC[C@]23c4c5ccc(O)c4O[C@H]2[C@@H](O)C=C[C@H]3[C@H]1C5` [MORPHINE], the 50% effect level (ED50) was put at a dose of 5.3 mg/kg.
